{
  "source": "patent US9492315B2",
  "about": "“Implantable therapeutic device” (ForSight Vision4, Inc., priority 2010, dated 2016)",
  "key": {"[1]": {"details": "in water at 20 C, measured value (Molokhia et al, Exp Eye Res 2008); cited from earlier work"}, "[2]": {"test": "Diffusion coefficient in water (measured BSA value scaled by viscosity and molecular weight)", "assay_type": "physicochemical", "details": "37 C, estimated from the BSA value at 20 C by viscosity and MW scaling", "source_text": "If the reservoir solution is aqueous or has a viscosity similar to water, the value for the diffusion coefficient of the therapeutic agent (TA) in water at the temperature of interest may be used. […] (Molokhia et al, Exp Eye Res 2008): DTA,37C=DBSA,20C(η20C/η37C)(MWBSA/MWTA)^1/3 where MW refers to the molecular weight of either BSA or the test compound and η is the viscosity of water.\nSmall molecules have a diffusion coefficient similar to fluorescein (MW=330, D=4.8 to 6 e-6 cm^2/s from Stay, M S et al. Pharm Res 2003, 20(1), pp. 96-102). For example, the small molecule may comprise a glucocorticoid such as triamcinolone acetonide having a molecular weight of about 435."}, "[3]": {"details": "model proteins of therapeutic interest; cited from earlier work"}},
  "note": "Like-named read-outs stand apart in the source and are kept apart here.",
  "data": [
    {"substance": "bovine serum albumin [BSA]", "values": [
      {"measurement": "Diff Coeff", "setting": "[1]", "result": "6.1e-7", "unit": "cm^2/s"},
      {"measurement": "Diff Coeff", "setting": "[2]", "result": "9.1e-7", "unit": "cm^2/s"},
      {"measurement": "diameter", "setting": "[3]", "result": 7.2, "unit": "nm"}
    ]}
  ]
}
